## Binding of CDR-mutated scFvs to a peptide of the spike HR2 region

Reference: Engelhart et al. 2022, doi:10.1038/s41597-022-01779-4. File: FLAb, binding data.

Target: peptide PDVDLGDISGINAS, taken from heptad repeat 2 (HR2) of SARS-CoV-2 spike.

Parent: Ab-14, a human scFv built as VH, a (GGGGS)3 linker, VL. Only the CDRs of the heavy chain vary.
VH: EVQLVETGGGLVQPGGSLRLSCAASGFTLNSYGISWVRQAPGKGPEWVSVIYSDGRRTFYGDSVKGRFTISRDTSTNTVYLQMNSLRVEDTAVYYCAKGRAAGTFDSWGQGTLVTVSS
VL: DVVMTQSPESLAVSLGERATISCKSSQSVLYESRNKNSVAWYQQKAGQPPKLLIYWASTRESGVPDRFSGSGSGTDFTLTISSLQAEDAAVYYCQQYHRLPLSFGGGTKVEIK

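The parent was found by panning a naive human phage display library on the peptide. AAYL49 was designed without a model: most single CDR substitutions and a random sample of double and triple ones. In AlphaSeq, yeast of one mating type display the scFv and yeast of the other type display the target. Binding brings cells together so that they mate, and sequencing counts the barcode pairs among the diploids. Each replicate has its own calibration line, from reference interactions of the BCL2 family. The assay was run in three technical replicates.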

Variants are written as CDR1, CDR2 and CDR3 of the heavy chain (limits as in the source). Parent: GFTLNSYGIS, VIYSDGRRTFYGDSVK, GRAAGTFDS. Scale: log10 of Kd in nM, estimated from mating counts; low values are strong binders. A pair that was not seen in that replicate is written "nd"; this usually means weak binding, but a binder can also be missed. Nonspecific signal, from three strains lacking the peptide, appeared in 15% of pairings of library AAYL49, centred on 4.06 (5% of these signals below 2.83); values are not corrected for it. For each scFv, signals with the empty controls are counted beside the result, with their mean in brackets.

{"CDR-H1": "GFTLNSYGIS", "CDR-H2": "VWYSDGRRTFQGDSNK", "CDR-H3": "GRAAGTFDS", "log10 Kd, replicates": "3.62 3.72 nd", "empty controls": "1 of 9 (4.82)"}
{"CDR-H1": "GFTLDSYGIS", "CDR-H2": "VIYSDGRRTFYGDSVK", "CDR-H3": "GRANGTFDS", "log10 Kd, replicates": "0.72 1.20 1.09", "empty controls": "0 of 9"}
{"CDR-H1": "GFTLNSYGIS", "CDR-H2": "VIYSDHRRTFYGDSTK", "CDR-H3": "GRAAGTFVS", "log10 Kd, replicates": "2.92 nd nd", "empty controls": "2 of 9 (3.14)"}
{"CDR-H1": "GFTLNSYGIS", "CDR-H2": "AIYSDGRREFYGDSVK", "CDR-H3": "GRAASTFDS", "log10 Kd, replicates": "4.88 nd nd", "empty controls": "1 of 9 (4.22)"}
{"CDR-H1": "LFTLNHYGIS", "CDR-H2": "VIYSDGRRTFYGDNVK", "CDR-H3": "GRAAGTFDS", "log10 Kd, replicates": "1.26 1.39 1.74", "empty controls": "0 of 9"}
{"CDR-H1": "GFTLNSYGIS", "CDR-H2": "VIYSDRRRTFYGDSWK", "CDR-H3": "GRAAGKFDS", "log10 Kd, replicates": "nd nd nd", "empty controls": "0 of 9"}
{"CDR-H1": "GVQLNSYGIS", "CDR-H2": "VIYSDGRRTFYGDSVK", "CDR-H3": "GRAAGTFNS", "log10 Kd, replicates": "2.79 2.83 2.97", "empty controls": "1 of 9 (3.13)"}
{"CDR-H1": "GFTLNSYGIS", "CDR-H2": "VIYSDGRRDFYGDSVK", "CDR-H3": "GRAAGTYDN", "log10 Kd, replicates": "nd nd nd", "empty controls": "0 of 9"}
{"CDR-H1": "GFTLNSYGIS", "CDR-H2": "YIYSDGRRTFYGDSAK", "CDR-H3": "GRIAGTFDS", "log10 Kd, replicates": "nd nd nd", "empty controls": "1 of 9 (2.98)"}
{"CDR-H1": "GFTLNSYGIV", "CDR-H2": "VIYSDGRRTFYGDSVK", "CDR-H3": "GRSAGTFDG", "log10 Kd, replicates": "nd nd nd", "empty controls": "0 of 9"}
{"CDR-H1": "GFTLNVYGIS", "CDR-H2": "VIYSDGRRTFYGDSVK", "CDR-H3": "GRAAGFFDQ", "log10 Kd, replicates": "nd nd 4.55", "empty controls": "2 of 9 (4.65)"}
{"CDR-H1": "GFTLNKYGIS", "CDR-H2": "VIYSDGRRTFYGDSVK", "CDR-H3": "GRAHGTFDS", "log10 Kd, replicates": "1.78 2.05 2.51", "empty controls": "1 of 9 (2.21)"}
{"CDR-H1": "GFYLNSYGIS", "CDR-H2": "VIYSDGRRTFRGDSPK", "CDR-H3": "GRAAGTFDS", "log10 Kd, replicates": "3.00 nd nd", "empty controls": "0 of 9"}
{"CDR-H1": "GFTLNSYGIS", "CDR-H2": "EIYSDGRWTFYGDSVK", "CDR-H3": "GRAAGTFDE", "log10 Kd, replicates": "nd nd nd", "empty controls": "0 of 9"}
{"CDR-H1": "GFTLNSYGIS", "CDR-H2": "DKYSDGRRTFYGDSIK", "CDR-H3": "GRAAGTFDS", "log10 Kd, replicates": "nd nd nd", "empty controls": "2 of 9 (3.19)"}
{"CDR-H1": "GFTLNSYGIS", "CDR-H2": "VIDSDGRRTFYGDSVK", "CDR-H3": "GRAAGTFDC", "log10 Kd, replicates": "nd nd 3.93", "empty controls": "6 of 9 (5.24)"}
{"CDR-H1": "GFTLNSYGIS", "CDR-H2": "VVYSDHRRTFYGDSDK", "CDR-H3": "GRAAGTFDS", "log10 Kd, replicates": "nd nd nd", "empty controls": "1 of 9 (4.17)"}
{"CDR-H1": "GFTLNDYGIS", "CDR-H2": "VIYSDGARTFQGDSVK", "CDR-H3": "GRAAGTFDS", "log10 Kd, replicates": "2.34 2.15 2.62", "empty controls": "2 of 9 (4.93)"}
{"CDR-H1": "GCTLNSYGIS", "CDR-H2": "VVYSDGRRTFYGDSVK", "CDR-H3": "GRAAGHFDS", "log10 Kd, replicates": "nd nd nd", "empty controls": "5 of 9 (4.63)"}
{"CDR-H1": "GFTLNSYGIS", "CDR-H2": "KIYSDGRRTFYGAIVK", "CDR-H3": "GRAAGTFDS", "log10 Kd, replicates": "nd nd nd", "empty controls": "0 of 9"}
{"CDR-H1": "LFTLNSYGIT", "CDR-H2": "VIYSDGRRTFYGDSVK", "CDR-H3": "GRAQGTFDS", "log10 Kd, replicates": "4.56 nd nd", "empty controls": "2 of 9 (4.25)"}